# Results published in EP4825392A1, “METHOD FOR TREATING METABOLIC DISEASES AND PHARMACEUTICAL USE OF GLP-1 ANALOGUE” (dated 2026).
# Assay: Phase II clinical study of efficacy and safety in subjects with type 2 diabetes
# Conditions: for AE: cell presumably number of subjects (percent); for Abdominal discomfort / Abdominal distension / Abdominal pain / Diarrhea / Flatulence / Gastroesophag eal reflux disease / Nausea / Vomiting: drug-related gastrointestinal adverse reaction during treatment
# Excerpt: • 1) The GLP-1 analogue prepared in Example 1, presented as an injection.
# Subjects must meet all of the following criteria to be eligible for this study: • 1) Aged 18-65 years (inclusive), without restriction on gender; • 2) Diagnosed with type 2 diabetes according to the criteria of the "Guidelines for the Prevention and Treatment of Type 2 Diabetes in China (2020 Edition)", with a duration of at least 6 months since meeting the diagnostic criteria; • 3) Received lifestyle intervention alone for at least 8 weeks prior to screening, or maintained stable monotherapy with metformin (daily dose ≥ 1000 mg) for at least 8 weeks. Stable treatment is defined as no changes in medication type and daily dosage; • 4) 7.5%≤HbA1c≤10.5% at screening; • 5) Body mass index (BMI) at screening: 22.0-40.0kg/m^2 (inclusive); • 6) Body weight fluctuation (the difference between the maximum and minimum body weight within 3 months) shall not exceed 5 kg in the 3 months before screening.
# The investigational drug was administered via subcutaneous injection into the abdomen once a week, either before or after meals.
# First treatment period (weeks 0-19): Subjects received GLP-1 analogue injection at doses of 1.0 mg, 2.0 mg, 3.0 mg and 4.5 mg, as well as placebo, for a 20-week treatment duration.
# Second treatment period (weeks 20-31): The doses of GLP-1 analogue injection or placebo administered in the first treatment period were maintained. The original investigational product groups were additionally given placebo, and the original placebo group received an additional 1.0 mg of the investigational drug. The treatment lasted for 12 weeks.
# Efficacy evaluation indicators include HbA1c, fasting and 2h post-mixed-meal plasma glucose, fasting and 2h post-mixed-meal serum insulin and C-peptide, pancreatic β-cell function, insulin resistance (HOMA model), 7-point SMBG profile, body weight, waist circumference, blood lipids (TC, LDL-C, HDL-C, TG), and blood pressure (systolic blood pressure, diastolic blood pressure), and the like.
# Adverse events, hypoglycemic events, laboratory indicators, 12-lead electrocardiogram, vital signs, etc.
# A total of 199 subjects with type 2 diabetes were randomly assigned in a 1:1:1:1:1 ratio to receive once-weekly subcutaneous injections of GLP-1 analogue (1.0 mg, 2.0 mg, 3.0 mg, and 4.5 mg) or placebo for 20 weeks. The primary endpoint was the change in glycated hemoglobin (HbA1C) relative to baseline after 20 weeks of administration.
substance,measurement,setting,value
H-YAibEGTFTSDYSIYK(OEG-OEG-γGlu-C20-OH)EKIAAQEFVNWLLAGGPSSGAPPPS-NH2,Hypoglycemia Grade 2-3,1.0 mg (N=40),0
same,AE,1.0 mg (N=40),30 (75.0)
same,Hypoglycemia Grade 2-3,2.0 mg (N=41),0
same,AE,2.0 mg (N=41),35 (85.4)
same,Hypoglycemia Grade 2-3,3.0 mg (N=39),0
same,AE,3.0 mg (N=39),32 (82.1)
same,Hypoglycemia Grade 2-3,4.5 mg (N=40),0
same,AE,4.5 mg (N=40),34 (85.0)
same,clinically significant hypoglycemia (< 3 mmol/L) or severe hypoglycemia,GLP-1 analogue groups 1.0 to 4.5 mg,No clinically significant hypoglycemia (< 3 mmol/L) or severe hypoglycemia was reported
same,Abdominal discomfort,1.0 mg (N=40),0
same,Abdominal distension,1.0 mg (N=40),2 (5.0)
same,Abdominal pain,1.0 mg (N=40),1 (2.5)
same,Diarrhea,1.0 mg (N=40),6 (15.0)
same,Flatulence,1.0 mg (N=40),1 (2.5)
same,Gastroesophag eal reflux disease,1.0 mg (N=40),0
same,Nausea,1.0 mg (N=40),4 (10.0)
same,Vomiting,1.0 mg (N=40),2 (5.0)
same,Abdominal discomfort,2.0 mg (N=41),2 (4.9)
same,Abdominal distension,2.0 mg (N=41),1 (2.4)
same,Abdominal pain,2.0 mg (N=41),0
same,Diarrhea,2.0 mg (N=41),10 (24.4)
same,Flatulence,2.0 mg (N=41),1 (2.4)
same,Gastroesophag eal reflux disease,2.0 mg (N=41),0
same,Nausea,2.0 mg (N=41),7 (17.1)
same,Vomiting,2.0 mg (N=41),1 (2.4)
same,Abdominal discomfort,3.0 mg (N=39),0
same,Abdominal distension,3.0 mg (N=39),3 (7.7)
same,Abdominal pain,3.0 mg (N=39),0
same,Diarrhea,3.0 mg (N=39),10 (25.6)
same,Flatulence,3.0 mg (N=39),0
same,Gastroesophag eal reflux disease,3.0 mg (N=39),0
same,Nausea,3.0 mg (N=39),9 (23.1)
same,Vomiting,3.0 mg (N=39),3 (7.7)
same,Abdominal discomfort,4.5 mg (N=40),2 (5.0)
same,Abdominal distension,4.5 mg (N=40),6 (15.0)
same,Abdominal pain,4.5 mg (N=40),2 (5.0)
same,Diarrhea,4.5 mg (N=40),14 (35.0)
same,Flatulence,4.5 mg (N=40),2 (5.0)
same,Gastroesophag eal reflux disease,4.5 mg (N=40),3 (7.5)
same,Nausea,4.5 mg (N=40),9 (22.5)
same,Vomiting,4.5 mg (N=40),3 (7.5)
same,LS Mean changes in HbA1C from baseline,"metformin subgroup, week 20, 2.0 mg group",-2.4%
same,LS Mean changes in HbA1C from baseline,"metformin subgroup, week 20, 3.0 mg group",-2.9%
same,LS Mean changes in HbA1C from baseline,"metformin subgroup, week 20, 4.5 mg group",-2.2%
same,LS Mean changes in HbA1C from baseline,"non-metformin subgroup, week 20, 1.0 mg group",-2.3%
same,LS Mean changes in HbA1C from baseline,"non-metformin subgroup, week 20, 2.0 mg group",-2.7%
same,LS Mean changes in HbA1C from baseline,"non-metformin subgroup, week 20, 3.0 mg group",-2.5%
same,LS Mean changes in HbA1C from baseline,"non-metformin subgroup, week 20, 4.5 mg group",-2.7%
same,LS Mean changes in body weight compared to baseline,"week 20, 1.0 mg group",-3.1%
same,LS Mean changes in triglycerides (TG) compared to baseline,"week 20, 1.0 mg group",-10.0%
same,LS Mean changes in urinary protein-to-creatinine ratio (UACR) compared to baseline,"week 20, 1.0 mg group",-18.1%
same,least squares mean (LS Mean) changes in HbA1C from baseline,"week 20, 1.0 mg group",-2.1%
same,percentages achieving HbA1c < 5.7%,"week 20, 1.0 mg group",17.5%
same,percentages achieving HbA1c ≤ 6.5%,"week 20, 1.0 mg group",62.5%
same,percentages of subjects achieving the target HbA1c < 7.0%,"week 20, 1.0 mg group",75.0%
same,LS Mean changes in body weight compared to baseline,"week 20, 2.0 mg group",-4.9%
same,LS Mean changes in triglycerides (TG) compared to baseline,"week 20, 2.0 mg group",-25.9%
same,least squares mean (LS Mean) changes in HbA1C from baseline,"week 20, 2.0 mg group",-2.6%
same,percentages achieving HbA1c < 5.7%,"week 20, 2.0 mg group",26.8%
same,percentages achieving HbA1c ≤ 6.5%,"week 20, 2.0 mg group",80.5%
same,percentages of subjects achieving the target HbA1c < 7.0%,"week 20, 2.0 mg group",90.2%
same,LS Mean changes in body weight compared to baseline,"week 20, 3.0 mg group",-5.5%
same,LS Mean changes in systolic blood pressure (SBP) relative to baseline,"week 20, 3.0 mg group",-10.0%
same,LS Mean changes in triglycerides (TG) compared to baseline,"week 20, 3.0 mg group",-25.7%
same,LS Mean changes in urinary protein-to-creatinine ratio (UACR) compared to baseline,"week 20, 3.0 mg group",-46.5%
same,percentages achieving HbA1c < 5.7%,"week 20, 3.0 mg group",28.2%
same,percentages achieving HbA1c ≤ 6.5%,"week 20, 3.0 mg group",69.2%
same,percentages of subjects achieving the target HbA1c < 7.0%,"week 20, 3.0 mg group",84.6%
same,LS Mean changes in body weight compared to baseline,"week 20, 4.5 mg group",-7.1%
same,LS Mean changes in systolic blood pressure (SBP) relative to baseline,"week 20, 4.5 mg group",-6.7%
same,LS Mean changes in triglycerides (TG) compared to baseline,"week 20, 4.5 mg group",-27.9%
same,LS Mean changes in urinary protein-to-creatinine ratio (UACR) compared to baseline,"week 20, 4.5 mg group",-49.5%
same,least squares mean (LS Mean) changes in HbA1C from baseline,"week 20, 4.5 mg group",-2.5%
same,percentages achieving HbA1c < 5.7%,"week 20, 4.5 mg group",35.0%
same,percentages achieving HbA1c ≤ 6.5%,"week 20, 4.5 mg group",90.0%
same,percentages of subjects achieving the target HbA1c < 7.0%,"week 20, 4.5 mg group",90.0%
